Results reported in article PMC3454369, “Functional Redundancy of Class I Phosphoinositide 3-Kinase (PI3K) Isoforms in Signaling Growth Factor-Mediated Human Neutrophil Survival” (PLoS ONE, 2012).

Amino acid sequences for entries named in this document (tags omitted). A change or cut given only in a name is not applied to a line headed by its entry.
UniProt P42338, whole entry, species assumed: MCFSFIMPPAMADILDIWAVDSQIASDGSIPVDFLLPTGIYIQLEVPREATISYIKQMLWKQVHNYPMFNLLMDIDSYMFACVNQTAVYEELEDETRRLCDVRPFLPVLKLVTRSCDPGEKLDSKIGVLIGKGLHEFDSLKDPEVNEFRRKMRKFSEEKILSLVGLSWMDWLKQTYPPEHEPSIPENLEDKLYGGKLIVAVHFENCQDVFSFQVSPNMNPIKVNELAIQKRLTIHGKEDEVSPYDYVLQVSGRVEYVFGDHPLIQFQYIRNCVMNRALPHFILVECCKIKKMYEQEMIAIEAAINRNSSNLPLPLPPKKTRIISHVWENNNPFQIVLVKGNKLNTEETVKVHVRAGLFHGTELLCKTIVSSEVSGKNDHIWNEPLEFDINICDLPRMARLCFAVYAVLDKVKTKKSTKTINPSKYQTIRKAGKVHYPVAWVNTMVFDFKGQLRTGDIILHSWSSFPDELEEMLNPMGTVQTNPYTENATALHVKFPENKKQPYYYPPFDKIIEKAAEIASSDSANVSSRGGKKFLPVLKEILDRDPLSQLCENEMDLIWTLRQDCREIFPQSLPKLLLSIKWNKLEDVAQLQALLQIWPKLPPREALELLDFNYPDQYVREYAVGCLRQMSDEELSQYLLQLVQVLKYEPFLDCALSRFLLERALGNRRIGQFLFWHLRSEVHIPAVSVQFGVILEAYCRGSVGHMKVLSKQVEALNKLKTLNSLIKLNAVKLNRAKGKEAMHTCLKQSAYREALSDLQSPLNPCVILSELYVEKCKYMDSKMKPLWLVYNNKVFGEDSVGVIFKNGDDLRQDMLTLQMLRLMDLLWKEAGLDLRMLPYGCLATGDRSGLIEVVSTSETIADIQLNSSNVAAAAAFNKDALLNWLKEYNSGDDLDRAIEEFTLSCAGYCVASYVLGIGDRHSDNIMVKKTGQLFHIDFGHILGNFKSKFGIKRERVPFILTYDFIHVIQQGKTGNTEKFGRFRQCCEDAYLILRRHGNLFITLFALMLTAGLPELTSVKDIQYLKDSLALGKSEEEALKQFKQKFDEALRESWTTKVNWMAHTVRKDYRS
UniProt O00329, whole entry, species assumed: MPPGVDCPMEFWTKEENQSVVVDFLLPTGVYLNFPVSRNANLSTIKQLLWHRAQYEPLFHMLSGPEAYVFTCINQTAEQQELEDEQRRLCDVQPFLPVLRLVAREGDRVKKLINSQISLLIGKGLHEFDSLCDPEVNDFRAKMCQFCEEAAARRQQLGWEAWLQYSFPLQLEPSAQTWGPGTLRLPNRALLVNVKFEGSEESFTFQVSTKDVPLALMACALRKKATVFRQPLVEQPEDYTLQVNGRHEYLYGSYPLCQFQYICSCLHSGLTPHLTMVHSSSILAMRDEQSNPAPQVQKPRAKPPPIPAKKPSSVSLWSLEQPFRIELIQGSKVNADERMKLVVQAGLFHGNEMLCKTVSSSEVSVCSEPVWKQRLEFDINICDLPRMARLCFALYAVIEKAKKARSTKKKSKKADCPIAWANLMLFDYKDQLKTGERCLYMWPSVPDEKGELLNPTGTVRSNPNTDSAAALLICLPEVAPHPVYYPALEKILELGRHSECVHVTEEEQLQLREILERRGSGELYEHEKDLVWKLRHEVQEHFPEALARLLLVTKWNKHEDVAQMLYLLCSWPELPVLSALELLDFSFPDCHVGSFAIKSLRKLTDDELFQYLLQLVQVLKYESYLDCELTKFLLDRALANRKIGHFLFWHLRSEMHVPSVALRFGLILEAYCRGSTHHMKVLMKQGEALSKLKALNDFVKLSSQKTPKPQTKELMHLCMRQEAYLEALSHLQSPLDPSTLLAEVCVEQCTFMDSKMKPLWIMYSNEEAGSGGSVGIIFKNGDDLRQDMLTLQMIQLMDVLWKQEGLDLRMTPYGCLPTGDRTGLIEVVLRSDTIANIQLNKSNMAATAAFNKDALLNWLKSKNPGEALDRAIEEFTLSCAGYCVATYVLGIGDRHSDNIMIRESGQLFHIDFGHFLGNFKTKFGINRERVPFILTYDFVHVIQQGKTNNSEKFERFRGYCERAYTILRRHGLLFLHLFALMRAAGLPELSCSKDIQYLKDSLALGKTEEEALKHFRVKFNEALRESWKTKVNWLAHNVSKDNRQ
UniProt P48736, whole entry, species assumed: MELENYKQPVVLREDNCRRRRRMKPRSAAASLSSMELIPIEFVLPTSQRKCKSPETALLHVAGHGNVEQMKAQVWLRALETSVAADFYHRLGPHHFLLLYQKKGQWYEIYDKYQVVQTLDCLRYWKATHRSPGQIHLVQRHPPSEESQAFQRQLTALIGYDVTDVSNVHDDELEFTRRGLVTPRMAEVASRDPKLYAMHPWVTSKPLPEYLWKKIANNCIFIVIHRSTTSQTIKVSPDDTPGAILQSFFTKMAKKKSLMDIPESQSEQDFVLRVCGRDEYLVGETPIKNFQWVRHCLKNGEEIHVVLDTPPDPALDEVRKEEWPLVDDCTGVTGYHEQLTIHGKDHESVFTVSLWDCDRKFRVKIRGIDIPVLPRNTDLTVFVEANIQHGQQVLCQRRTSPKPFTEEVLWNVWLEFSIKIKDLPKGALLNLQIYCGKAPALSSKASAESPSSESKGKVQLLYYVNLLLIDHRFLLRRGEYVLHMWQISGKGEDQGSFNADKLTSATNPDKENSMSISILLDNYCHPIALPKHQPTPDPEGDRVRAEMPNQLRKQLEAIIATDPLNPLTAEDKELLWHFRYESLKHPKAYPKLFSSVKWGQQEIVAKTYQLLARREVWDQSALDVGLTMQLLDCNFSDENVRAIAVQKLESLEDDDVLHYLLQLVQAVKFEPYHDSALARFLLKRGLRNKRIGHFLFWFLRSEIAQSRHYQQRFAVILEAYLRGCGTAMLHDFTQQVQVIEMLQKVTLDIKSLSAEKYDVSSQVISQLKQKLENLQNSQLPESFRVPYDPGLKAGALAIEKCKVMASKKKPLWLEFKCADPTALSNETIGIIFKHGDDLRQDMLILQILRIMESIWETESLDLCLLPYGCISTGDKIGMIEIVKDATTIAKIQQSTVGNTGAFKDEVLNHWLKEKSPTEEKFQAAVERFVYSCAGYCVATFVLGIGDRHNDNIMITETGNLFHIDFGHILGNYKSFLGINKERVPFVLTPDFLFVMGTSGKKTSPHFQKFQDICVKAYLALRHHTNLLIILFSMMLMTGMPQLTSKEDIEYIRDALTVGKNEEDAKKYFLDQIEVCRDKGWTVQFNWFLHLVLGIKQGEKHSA
UniProt P42336, whole entry, species assumed: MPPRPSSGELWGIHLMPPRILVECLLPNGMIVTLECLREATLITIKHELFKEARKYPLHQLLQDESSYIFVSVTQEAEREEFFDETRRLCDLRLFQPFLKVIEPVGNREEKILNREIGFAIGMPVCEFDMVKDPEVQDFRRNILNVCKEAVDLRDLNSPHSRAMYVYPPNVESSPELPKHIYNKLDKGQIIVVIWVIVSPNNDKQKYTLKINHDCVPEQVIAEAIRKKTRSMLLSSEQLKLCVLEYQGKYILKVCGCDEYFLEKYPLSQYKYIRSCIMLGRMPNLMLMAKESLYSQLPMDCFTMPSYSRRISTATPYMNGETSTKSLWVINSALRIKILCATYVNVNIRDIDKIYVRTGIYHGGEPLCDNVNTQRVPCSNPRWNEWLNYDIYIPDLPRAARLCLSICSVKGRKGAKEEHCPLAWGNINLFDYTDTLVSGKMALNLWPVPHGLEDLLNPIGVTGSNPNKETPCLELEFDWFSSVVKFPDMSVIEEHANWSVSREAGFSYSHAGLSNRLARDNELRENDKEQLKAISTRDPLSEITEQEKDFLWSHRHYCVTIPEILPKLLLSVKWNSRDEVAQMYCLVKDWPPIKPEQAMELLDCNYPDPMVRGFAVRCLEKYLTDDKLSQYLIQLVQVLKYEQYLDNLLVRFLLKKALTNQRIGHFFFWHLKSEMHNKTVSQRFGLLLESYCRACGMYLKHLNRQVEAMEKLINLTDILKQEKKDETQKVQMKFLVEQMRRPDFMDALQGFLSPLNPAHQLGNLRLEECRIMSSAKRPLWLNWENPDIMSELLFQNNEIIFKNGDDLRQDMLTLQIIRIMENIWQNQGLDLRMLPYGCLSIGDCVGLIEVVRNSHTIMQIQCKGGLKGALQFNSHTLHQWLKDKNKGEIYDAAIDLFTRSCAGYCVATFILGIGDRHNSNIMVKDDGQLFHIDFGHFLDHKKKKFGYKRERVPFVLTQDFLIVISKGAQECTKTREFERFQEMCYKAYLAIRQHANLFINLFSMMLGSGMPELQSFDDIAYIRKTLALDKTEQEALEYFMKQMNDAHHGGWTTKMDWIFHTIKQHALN

Experiments:
p110β [1] = biological target: T1, p110β (Homo sapiens, UniProt P42338); conditions: in vitro kinase assay; data compiled from published work; cited from earlier work
p110β [2] = biological target: T1, p110β; experiment: biochemical
p110δ = p110δ (Homo sapiens, UniProt O00329); experiment: biochemical
p110γ = p110γ (Homo sapiens, UniProt P48736); experiment: biochemical
p110α = p110α (Homo sapiens, UniProt P42336); experiment: biochemical

IC50 (p110β [2]) | IC50 (p110δ) | IC50 (p110γ) | IC50 (p110α) | SMILES | IC50 (p110β [1])
– | – | – | – | Cc1cc(C(C)Nc2ccccc2)c2nc(N3CCOCC3)cc(=O)n2c1 (centres unmarked) [TGX-221] | 7 nM
5500 nM | 980 nM | 2400 nM | 75 nM | NC(=O)[C@@H]1CCCN1C(=O)Nc1nc2ccc(-c3cnc(N)c(C(F)(F)F)c3)cc2s1 [NVS-PI3-2] | –

Like-named read-outs stand apart in the source and are kept apart here.
